Measurements reported in US20080105961A1, “Ligands of the Molecule Fit (Agt-121) and their Pharmaceutical Use” (priority 2004, published 2008).

Biological target: T1, FIT-NP (FIT N-terminal plus proline-rich region) (Homo sapiens, UniProt Q9BQI5)
T1 construct: expressed in transfected cells
T1 sequence (Q9BQI5 with tags, fused parts or gaps I33M/P40L/N43H/V56A/I186T/P191L/T195L/E211G/Q212H/I230V/T240A/N255T/I269V/G270A/P271T/S276A/V280A/L285P/N289S/A308T/K311T/T318A/S335T/T339A/P340S/N342I/A348T/L352P/P357S/T358A/DEL367-367/L371P/I397L/D402E/F403C/A409E/P432S/P434T/T437A/R454S/S455C/T456S): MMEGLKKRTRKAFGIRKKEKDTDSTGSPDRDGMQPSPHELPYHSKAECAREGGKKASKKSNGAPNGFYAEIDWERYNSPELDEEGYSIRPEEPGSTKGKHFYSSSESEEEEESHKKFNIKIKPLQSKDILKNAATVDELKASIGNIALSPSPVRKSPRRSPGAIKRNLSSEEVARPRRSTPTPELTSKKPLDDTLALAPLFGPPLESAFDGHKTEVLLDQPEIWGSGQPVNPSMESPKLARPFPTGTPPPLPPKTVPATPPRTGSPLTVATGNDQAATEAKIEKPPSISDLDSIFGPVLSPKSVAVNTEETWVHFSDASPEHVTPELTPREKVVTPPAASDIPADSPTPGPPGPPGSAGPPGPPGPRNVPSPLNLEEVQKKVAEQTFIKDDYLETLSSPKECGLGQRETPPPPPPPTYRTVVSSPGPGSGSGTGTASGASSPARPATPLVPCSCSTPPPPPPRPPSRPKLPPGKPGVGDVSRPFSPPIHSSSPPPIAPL
Experiment: Yeast two-hybrid screen of human brain cDNA library, bait FIT-NP
Type: binding
From the text: To investigate the mechanism by which FIT regulates energy balance, neural proteins that interact with FIT were identified. In order to perform these experiments, two truncated fragments of FIT were constructed to be used as baits in a yeast two-hybrid screen of a human brain cDNA library: one bait consisting of the N-terminal region plus the central proline-rich region, and the other bait consisting of the central proline-rich region alone. The inventors utilised a yeast two-hybrid system which incorporates modifications by Chevray and Nathans (1992), and Vidal et al. (1996) to screen a human brain cDNA library. FIT fragments were PCR amplified, purified and then cloned into an appropriate vector. Sense oligonucleotides for FIT-NP (5′-[…]-3′: SEQ ID NO:72), and FIT-PR (5′-[…]-3′: SEQ ID NO:73), with Sal1 restriction enzyme sites underlined, were used in conjunction with a common antisense oligonucleotide (5′-[…]-3′: SEQ ID NO:74), with the Not1 restriction enzyme site underlined.
Human brain cDNA inserts were prepared and cloned into the expression vector according to manufacturer's instructions.

How did the Number of clones (bait FIT-NP, human brain cDNA library, clones listed highest to lowest interacting strength) turn out when “β-arrestin 2: FIT interacting protein isolated from a human brain cDNA library” was run?
Its Number of clones is 2.

And the “strength of interaction with FIT” value (in yeast)?
Its value is “slightly lesser strength”.
